Laboratory results taken from PubChem BioAssay AID1205 (EPA DSSTox, 2008).
Some results for these compounds are left out of this collection, so the calls shown say nothing about other tests. Active and inactive are the calls of the source.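 How the source made its calls: active means tumour findings in long-term animal cancer tests in more than one sex, species or organ; inactive means no tumour finding and more than one negative test.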

Experiment: DSSTox (CPDBAS) Carcinogenic Potency Database Summary MultiCellCall Results
Settings: animal carcinogenicity bioassays, multi-cell call summary
Description: The Carcinogenic Potency Database (CPDB) is a unique and widely used international resource of the results of over 6500 chronic, long-term animal cancer tests on over 1500 chemical substances. The CPDB provides easy access to the bioassay literature, with qualitative and quantitative analyses of both positive and negative experiments that have been published over the past 50 years in the general literature and by the National Cancer Institute/National Toxicology Program. The CPDB standardizes the diverse literature of cancer bioassays that vary widely in protocol, histopathological examination and nomenclature, and in the published author's choices of what information to provide in their papers. Results are reported in the CPDB for tests in rats, mice, hamsters, dogs, and nonhuman primates, and are based on the most positive result among all experiments for each sex-species. The DSSTox CPDBAS (all species) file incorporates data from the CPDB Summary Tables for the full list of over 1500 chemical substances tested in at least one species. A summary MultiCellCall, based on experimental bioassay results of one or more species, is provided in the DSSTox CPDBAS file (see Source URL) for more than 1150 chemical substances. […]

Structure (SMILES): N#CC(C#N)=Cc1ccccc1Cl
- outcome: inactive; multisex inactive; multispecies inactive
